The nature of the data set: in vivo. To be noted: male, Swiss, mouse, kidney, po, 8 mg/kg.

The structures appear in SMILES notation.

With `Cc1cc2c(s1)Nc1ccccc1N=C2N1CCN(C)CC1` [olanzapine, Olanzapine], the concentration at 2 h amounted to 41100 ng/g.

For the origin of these results see US9182409B2, “Mass spectrometry imaging method for detecting and quantifying a target molecule in a tissue sample” (priority 2011, dated 2015).
